{"source": "patent US5571789A", "about": "(Haemopep Pharma GmbH, priority 1992, dated 1996)", "key": {"[1]": {"details": "intravenous application, similar dosage of urodilatin and ANP; cited from earlier work"}, "[2]": {"system": "blood pressure and heart frequency"}, "[3]": {"system": "heart frequency", "assay": "Heart frequency (EKG) in rats under infusion", "source_text": "Employing a test animal body plethysmograph allowed for continuous measurement of the respiration volume (VT), respiration frequency (f), respiration minute volume (MV), resistance of the lung (RL), dynamic compliance (Cdyn), respiration flow (F) and transpulmonary pressure (PTP) of a narcotized, intubated and spontaneously breathing rat. Circulation monitoring was accomplished by EKG recording with evaluation of the heart frequency (HR).\nBy means of an injectomar device the test animals were infused 0.5 ml of solution continuously over a total of 10 minutes."}, "[4]": {"source_text": "The anamnesis gave no evidence for an exacerbation of the disease in the last 8 weeks. No nicotine abuse was known from any of the patients. Additional inclusion criteria were defined by an expiratory one-second-capacity (FEV1.0) of 40 to 70% of the maximum vital capacity (VCmax) before administration of a broncho-spasmolytic agent, an effect of a β2 -sympathomimetic on FEV1.0 of ≥15%, no alteration of the maintenance antiobstructive treatment and no administration of oral corticoids in the last 4 weeks before the beginning of the study. Within 8 hours before the beginning of the examinations no inhalatory application of a β2 -sympathomimetic must have occurred anymore."}}, "note": "Where two headings read alike, the source gives them in different places."}
{"substance": "urodilatin", "values": [{"measurement": "Hypotensive effect", "setting": "[1]", "result": "without the hypotensive effect"}, {"measurement": "Systolic blood pressure versus initial values (pre)", "setting": "[2]; 40 ng/kg/min, 20 and 30 minutes after completion of the infusion", "result": "significant drop"}, {"measurement": "Persistence of heart frequency increase", "setting": "[2]; 60 ng/kg/min only", "result": "endured until 30 minutes after completion of the infusion"}, {"measurement": "Systolic and diastolic blood pressure values during the infusion", "setting": "[2]; 20, 40 and 60 ng/kg/min (any dosage group)", "result": "no significant change"}, {"measurement": "Heart frequency versus initial values", "setting": "[2]; after 40 minutes of infusion, all three dosage groups (20, 40, 60 ng/kg/min)", "result": "significant increase"}, {"measurement": "Heart frequency (significant increase / differences between groups)", "setting": "[3]; administered doses of groups B-D, before infusion, after 5 minutes, end of ACh provocation", "result": "could not be detected"}, {"measurement": "Heart frequency", "setting": "[3]; preliminary experiments, 400 ng/kg/min infused in 1 ml", "result": "no changes in heart frequency"}, {"measurement": "Diuretic effect observed", "setting": "[4]; 20 ng/kg/min", "result": 2, "unit": "patients"}, {"measurement": "Headaches", "setting": "[4]; 20 ng/kg/min", "result": "One"}, {"measurement": "No side effects reported at all", "setting": "[4]; 20 ng/kg/min", "result": 3, "unit": "patients"}, {"measurement": "Diuretic effect observed", "setting": "[4]; 40 ng/kg/min", "result": 3, "unit": "patients"}, {"measurement": "No side effects reported at all", "setting": "[4]; 40 ng/kg/min", "result": 2, "unit": "patients"}, {"measurement": "Transitory bradycardia", "setting": "[4]; 40 ng/kg/min", "result": 2, "unit": "patients"}, {"measurement": "Diuretic effect observed", "setting": "[4]; 60 ng/kg/min", "result": 3, "unit": "patients"}, {"measurement": "No side effects reported at all", "setting": "[4]; 60 ng/kg/min", "result": 3, "unit": "patients"}, {"measurement": "Transitory bradycardia", "setting": "[4]; 60 ng/kg/min", "result": 1, "unit": "patient"}, {"measurement": "Correlation of side effects with the amount of the infused dose", "setting": "[4]; 20, 40, 60 ng/kg/min", "result": "did not show any correlation"}, {"measurement": "No side effects reported at all", "setting": "[4]; all dosage groups", "result": "8 of 18"}, {"measurement": "Transitory bradycardia", "setting": "[4]; all dosage groups", "result": "3 of 18"}]}
